Source: patent US20240408215A1, “USE OF DIAZIRINE LINKER FOR DRUG CONJUGATES” (HELMHOLTZ ZENTRUM MUNCHEN - DEUTSCHES FORSCHUNGSZENTRUM FUR …, priority 2021, published 2024)

Settings: LC-MS after 20 min UV light irradiation (FIG. 1)

Substance: (2S,2′S)-bis(2-(6-methoxynaphthalen-2-yl)propanoate) [naproxen dimer conjugate]
- release of the native form of Naproxen upon UV-light irradiation: demonstrated
